ChEMBL document CHEMBL1681711, “Discovery of a potent, orally bioavailable pyrimidine VLA-4 antagonist effective in a sheep asthma model” (Bioorg Med Chem Lett, 2011)

Amino acid sequences for entries named in this document (tags omitted).
UniProt P05556, whole entry: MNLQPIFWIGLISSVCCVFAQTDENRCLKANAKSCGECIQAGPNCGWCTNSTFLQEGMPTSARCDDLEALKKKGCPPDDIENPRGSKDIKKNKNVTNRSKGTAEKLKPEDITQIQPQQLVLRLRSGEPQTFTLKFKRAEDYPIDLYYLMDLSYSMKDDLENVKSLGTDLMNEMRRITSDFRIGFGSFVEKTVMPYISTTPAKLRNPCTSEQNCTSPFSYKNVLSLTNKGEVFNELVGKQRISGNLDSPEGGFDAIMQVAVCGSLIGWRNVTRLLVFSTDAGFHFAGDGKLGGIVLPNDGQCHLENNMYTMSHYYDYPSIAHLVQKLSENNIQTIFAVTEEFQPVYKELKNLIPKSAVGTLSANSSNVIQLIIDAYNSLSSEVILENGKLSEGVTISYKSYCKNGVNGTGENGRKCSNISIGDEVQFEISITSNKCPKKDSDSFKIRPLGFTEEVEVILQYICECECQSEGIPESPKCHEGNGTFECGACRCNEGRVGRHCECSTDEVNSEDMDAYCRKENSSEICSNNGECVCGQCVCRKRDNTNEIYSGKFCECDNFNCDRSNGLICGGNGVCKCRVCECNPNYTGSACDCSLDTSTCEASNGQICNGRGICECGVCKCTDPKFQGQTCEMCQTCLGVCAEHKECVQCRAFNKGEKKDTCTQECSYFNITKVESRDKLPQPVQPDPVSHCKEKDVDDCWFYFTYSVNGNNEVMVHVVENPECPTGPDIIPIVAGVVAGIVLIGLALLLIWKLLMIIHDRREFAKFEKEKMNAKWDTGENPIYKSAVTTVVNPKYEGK
UniProt P13612, whole entry: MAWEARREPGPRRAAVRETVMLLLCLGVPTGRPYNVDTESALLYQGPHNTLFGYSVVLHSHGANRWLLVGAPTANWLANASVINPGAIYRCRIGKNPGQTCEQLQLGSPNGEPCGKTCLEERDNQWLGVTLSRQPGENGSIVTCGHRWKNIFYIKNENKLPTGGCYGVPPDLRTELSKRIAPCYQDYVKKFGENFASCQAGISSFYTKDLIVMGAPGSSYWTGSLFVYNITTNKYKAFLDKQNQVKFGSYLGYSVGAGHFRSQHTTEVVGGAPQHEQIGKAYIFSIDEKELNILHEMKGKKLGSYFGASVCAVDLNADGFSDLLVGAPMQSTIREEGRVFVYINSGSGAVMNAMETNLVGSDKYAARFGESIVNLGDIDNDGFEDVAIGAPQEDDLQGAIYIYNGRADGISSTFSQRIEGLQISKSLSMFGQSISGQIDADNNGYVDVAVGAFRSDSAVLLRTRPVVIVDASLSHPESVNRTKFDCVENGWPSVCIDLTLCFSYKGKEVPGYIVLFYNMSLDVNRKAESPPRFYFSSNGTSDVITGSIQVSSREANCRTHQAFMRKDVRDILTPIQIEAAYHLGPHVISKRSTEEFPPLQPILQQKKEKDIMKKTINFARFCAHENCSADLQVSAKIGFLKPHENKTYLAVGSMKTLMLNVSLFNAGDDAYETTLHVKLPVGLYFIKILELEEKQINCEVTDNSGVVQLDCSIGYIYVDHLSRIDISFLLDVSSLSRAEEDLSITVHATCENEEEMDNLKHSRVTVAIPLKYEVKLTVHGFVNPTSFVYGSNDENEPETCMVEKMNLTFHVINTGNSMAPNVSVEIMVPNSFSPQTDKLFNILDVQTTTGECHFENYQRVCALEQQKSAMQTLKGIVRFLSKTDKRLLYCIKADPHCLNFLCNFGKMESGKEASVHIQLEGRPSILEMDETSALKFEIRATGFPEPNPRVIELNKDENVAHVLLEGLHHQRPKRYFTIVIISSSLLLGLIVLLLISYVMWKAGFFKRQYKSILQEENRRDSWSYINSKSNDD

Biological target: Integrin alpha-4/beta-1 (Homo sapiens, UniProt P05556+P13612)
Experiment: Inhibition of integrin alpha4beta1-mediated Jurkat cell adhesion to VCAM-1 by FACS analysis
Type: cell-based
How it was run: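 α4β1-positive Jurkat cells were incubated with recombinant soluble VCAM-1, and binding of this ligand was measured by flow cytometry (FACS).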

Question: Which IC50 does the source give for `CCN(CC)c1ncc(-c2c(C)noc2C)c(N[C@@H](Cc2ccc(OC(=O)N(C)C)cc2)C(=O)O)n1` here?
Answer: < 1 nM
